Data on 53 molecules can be found in patent US6583179B2, “Substituted aminoalkylamide derivatives as antagonists of follicle stimulating hormone” (Ortho-McNeil Pharmaceutical, Inc., priority 1999, dated 2003).

By UniProt entry, the sequences of proteins in these tests, tags left out. Residues count along the entry.
UniProt P23945, 18-695 limits assumed: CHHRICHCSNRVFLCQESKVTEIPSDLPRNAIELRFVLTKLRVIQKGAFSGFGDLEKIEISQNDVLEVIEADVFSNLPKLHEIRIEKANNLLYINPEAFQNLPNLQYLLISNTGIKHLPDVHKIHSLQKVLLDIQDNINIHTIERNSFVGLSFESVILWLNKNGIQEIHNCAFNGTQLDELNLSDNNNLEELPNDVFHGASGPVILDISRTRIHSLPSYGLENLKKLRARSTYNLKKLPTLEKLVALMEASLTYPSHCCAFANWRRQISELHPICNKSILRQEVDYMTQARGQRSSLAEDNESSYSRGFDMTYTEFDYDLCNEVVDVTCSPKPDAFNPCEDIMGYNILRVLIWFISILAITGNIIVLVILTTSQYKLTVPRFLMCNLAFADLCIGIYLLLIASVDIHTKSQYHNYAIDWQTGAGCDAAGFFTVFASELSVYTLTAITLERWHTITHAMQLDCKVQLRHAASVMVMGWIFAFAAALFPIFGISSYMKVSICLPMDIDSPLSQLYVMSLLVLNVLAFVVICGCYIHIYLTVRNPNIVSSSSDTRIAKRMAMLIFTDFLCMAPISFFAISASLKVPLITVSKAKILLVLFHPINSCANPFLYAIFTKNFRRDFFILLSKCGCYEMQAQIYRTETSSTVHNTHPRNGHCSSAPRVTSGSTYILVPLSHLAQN

As usually defined, the EC50 is the concentration giving half of the maximal effect.

A value given as a limit tells only on which side of the number the result lay.

This assay concerns the target human FSH receptor (Homo sapiens, UniProt P23945). In words: hFSHR CHO cAMP assay (rhFSHR-cLUC cells, FSH-stimulated cAMP, radioimmunoassay). To be noted: read-out: EC50 hFSHR CHO cAMP; inhibition of cAMP produced by EC70 dose of FSH (4.85 nM); maximum concentration 50 μM.
Regarding `COc1ccccc1CN(CC(=O)NCc1cccc(CN)c1)S(=O)(=O)c1ccc(-c2ccc(Cl)cc2Cl)cc1`, the EC50 was determined as 3150 nM.

As to `NCCCCCCNC(=O)CN(CCc1ccccn1)S(=O)(=O)c1ccc(-c2ccccc2Cl)cc1`, the EC50 is 1940 nM.

For the molecule `COc1ccc(OC)c(CCN(CC(=O)NCCCCCCN)S(=O)(=O)c2ccc(-c3ccccc3Cl)cc2)c1`, the EC50 was 90 nM.

On to `COc1ccccc1CCN(CC(=O)NCc1ccc(CN)cc1)S(=O)(=O)c1cccc(-c2ccccc2Cl)c1`, for which the EC50 was 5850 nM.

As to `C[C@@H](CN(CC(=O)NCc1ccc(CN)cc1)S(=O)(=O)c1ccc(-c2ccc(F)cc2)cc1)c1ccccc1` [414], the EC50 is 350 nM.

`COc1ccc(-c2cccc(S(=O)(=O)N(CCc3ccccc3OC)CC(=O)NCc3ccc(CN)cc3)c2)cc1`: the EC50 was 5330 nM.

As for `COc1ccccc1CN(CC(=O)NCCCCCCN)S(=O)(=O)c1ccc(-c2ccccc2Cl)cc1`, the EC50 is 300 nM.

On to `COc1ccccc1CCN(CC(=O)NCc1ccc(CN)cc1)S(=O)(=O)c1cccc(-c2cccc(N)c2)c1`, for which the EC50 stood at 2630 nM.

Turning to `COc1ccccc1CCN(CC(=O)NCc1ccc(CN)cc1)S(=O)(=O)c1ccc(-c2cccnc2)s1`, the EC50 turned out to be 7630 nM.

With `NCCCCCCNC(=O)CN(CCc1cccc(C(F)(F)F)c1)S(=O)(=O)c1ccc(-c2ccccc2Cl)cc1`, the EC50 worked out at 250 nM.

Turning to `COc1ccccc1CCN(CC(=O)NCc1ccc(CN)cc1)S(=O)(=O)c1ccccc1-c1ccccc1`, the EC50 amounted to 4460 nM.

As to `COc1ccccc1CCN(CC(=O)NCc1ccc(CN)cc1)S(=O)(=O)c1ccc(C(F)(F)F)cc1[N+](=O)[O-]`, the EC50 is at least 50000 nM.

With `COc1ccccc1CN(CC(=O)N1CCNCC1)S(=O)(=O)c1ccc(-c2ccc(C)cc2)cc1`, the 50% effective concentration (EC50) was at least 50000 nM.

`Cc1ccccc1-c1ccc(S(=O)(=O)N(CC(=O)N2CCC(C3CCNCC3)CC2)C[C@H](C)c2ccccc2)cc1`: the EC50 turned out to be 780 nM.

Take `COc1ccccc1CCN(CC(=O)N1CCNCC1)S(=O)(=O)c1ccc(-c2cccc(NC(C)=O)c2)cc1`: the EC50 came out at 11200 nM.

On to `COc1ccccc1CCN(CC(=O)N1CCNCC1)S(=O)(=O)c1ccc(-c2ccc(Cl)cc2)cc1`, for which the EC50 worked out at 13800 nM.

`NCc1ccc(CNC(=O)CN(CCc2cccc(F)c2)S(=O)(=O)c2ccc(-c3ccccc3Cl)cc2)cc1`: the EC50 stood at 100 nM.

In the case of `C[C@@H](CN(CC(=O)NCc1ccc(CN)cc1)S(=O)(=O)c1ccc(-c2cccc([N+](=O)[O-])c2)cc1)c1ccccc1`, the EC50 amounted to 80 nM.

Consider `COc1ccc(OC)c(CCN(CC(=O)NCc2ccc(CN)cc2)S(=O)(=O)c2ccc(-c3ccccc3Cl)cc2)c1`, for which the EC50 is 140 nM.

As to `COc1cc(CCN(CC(=O)NCc2ccc(CN)cc2)S(=O)(=O)c2ccc(-c3ccccc3Cl)cc2)cc(OC)c1`, the EC50 came out at 450 nM.

For the molecule `C[C@@H](CN(CC(=O)NCc1ccc(CN)cc1)S(=O)(=O)c1ccc(-c2cccc3c2Sc2ccccc2S3)cc1)c1ccccc1`, the EC50 was over 50000 nM.

Regarding `COc1ccccc1-c1ccc(S(=O)(=O)N(CC(=O)NCc2ccc(CN)cc2)C[C@H](C)c2ccccc2)cc1` [421], the half-maximal effective concentration (EC50) was 550 nM.

Take `NCc1ccc(CNC(=O)CN(CCc2cccc(Cl)c2)S(=O)(=O)c2ccc(-c3ccccc3Cl)cc2)cc1`: the EC50 turned out to be 350 nM.

In the case of `COc1ccccc1-c1ccc(S(=O)(=O)N(CC(=O)NCc2ccc(CN)cc2)C[C@@H](C)c2ccccc2)cc1`, the EC50 was 230 nM.

Take `COc1ccccc1CCN(CC(=O)N1CCNCC1)S(=O)(=O)c1ccc(-c2cccnc2)cc1`: the EC50 is 28500 nM.

With `COc1cccc(-c2ccc(S(=O)(=O)N(CCc3ccccc3OC)CC(=O)N3CCNCC3)cc2)c1`, the concentration for a half-maximal effect (EC50) stood at 8960 nM.

In the case of `COc1ccccc1CCN(CC(=O)NCc1ccc(CN)cc1)S(=O)(=O)c1cccc(-c2ccncc2)c1`, the EC50 came out at 32000 nM.

With `CC(C)N(C(=O)c1ccccc1-c1ccc(S(=O)(=O)N(CC(=O)NCc2ccc(CN)cc2)C[C@H](C)c2ccccc2)cc1)C(C)C`, the EC50 was 32500 nM.

As to `C[C@@H](CN(CC(=O)NCc1ccc(CN)cc1)S(=O)(=O)c1ccc(-c2ccc(C=O)o2)cc1)c1ccccc1`, the EC50 amounted to 9050 nM.

`NCc1ccc(CNC(=O)CN(C2CC2c2ccccc2)S(=O)(=O)c2ccc(-c3ccccc3Cl)cc2)cc1` (centres unmarked): the EC50 came out at 11300 nM.

Regarding `C[C@H](CN(CC(=O)NCc1ccc(CN)cc1)S(=O)(=O)c1ccc(Br)cc1)c1ccccc1`, the EC50 is at least 50000 nM.

For the molecule `COc1ccccc1CCN(CC(=O)NCc1ccc(CN)cc1)S(=O)(=O)c1ccc(C(F)(F)F)cc1`, the EC50 is 5000 nM.

`C[C@H](CN(CC(=O)NCC1CCCC(CN)C1)S(=O)(=O)c1ccc(-c2cccc(F)c2)cc1)c1ccccc1` (some centres unmarked): the EC50 was 1930 nM.

For `CC(CN(CC(=O)NCc1ccc(CN)cc1)S(=O)(=O)c1ccc(-c2cccc(F)c2)cc1)c1ccc(Cl)cc1` (centres unmarked), the EC50 came out at 960 nM.

`COc1cc(CCN(CC(=O)NCCCCCCN)S(=O)(=O)c2ccc(-c3ccccc3Cl)cc2)cc(-c2ccccc2Cl)c1OC`: the EC50 amounted to 620 nM.

`COc1ccccc1CCN(CC(=O)NCc1ccc(CN)cc1)S(=O)(=O)c1ccccc1F`: the EC50 amounted to 2580 nM.

Regarding `NCc1ccc(CNC(=O)CN(CCc2c(Cl)cccc2Cl)S(=O)(=O)c2ccc(-c3ccccc3Cl)cc2)cc1`, the EC50 stood at 110 nM.

With `C[C@@H](CN(CC(=O)NCCCCCCN)S(=O)(=O)c1ccc(-c2cccc(F)c2)cc1)c1ccccc1`, the 50% effective concentration (EC50) came out at 220 nM.

Turning to `COc1ccccc1CCN(CC(=O)NCc1ccc(CN)cc1)S(=O)(=O)c1ccccc1-c1ccc(C)cc1`, the EC50 was 6510 nM.

For `C[C@H](CN(CC(=O)NC1CCC(CC2CCC(N)CC2)CC1)S(=O)(=O)c1ccc(-c2ccccc2Cl)cc1)c1ccccc1` (some centres unmarked), the EC50 was determined as 2550 nM.

Regarding `COc1ccccc1CN(CC(=O)N1CCNCC1)S(=O)(=O)c1ccc(-c2cccc(NC(C)=O)c2)cc1`, the EC50 was at least 50000 nM.

Turning to `NCc1ccc(CNC(=O)CN(CCc2cccs2)S(=O)(=O)c2ccc(-c3ccccc3Cl)cc2)cc1`, the EC50 is 190 nM.

In the case of `COc1ccccc1CCN(CC(=O)NCc1ccc(CN)cc1)S(=O)(=O)c1ccc(-c2ccco2)s1`, the EC50 is 1540 nM.

As for `COc1ccccc1CCN(CC(=O)NCc1ccc(CN)cc1)S(=O)(=O)c1cccc(-c2cccc(C)c2)c1`, the EC50 came to 4190 nM.

As to `COc1ccccc1CCN(CC(=O)N1CCNCC1)S(=O)(=O)c1ccc(-c2c(C)noc2C)cc1`, the EC50 amounted to 12500 nM.

Turning to `COc1ccccc1CCN(CC(=O)NCc1ccc(CN)cc1)S(=O)(=O)c1cc(C)ccc1OC`, the EC50 is 18600 nM.

For `CN(C)c1ccccc1CCN(CC(=O)NCc1ccc(CN)cc1)S(=O)(=O)c1ccc(-c2ccccc2Cl)cc1`, the EC50 amounted to 720 nM.

As to `Cc1ccc(-c2ccc(S(=O)(=O)N(CC(=O)NCc3ccc(CN)cc3)C[C@H](C)c3ccccc3)cc2)cc1` [465], the EC50 is 2190 nM.

As to `NCc1ccc(CNC(=O)CN(CC2Cc3ccccc32)S(=O)(=O)c2ccc(-c3ccccc3Cl)cc2)cc1` (centres unmarked), the EC50 was 4770 nM.

In the case of `Cc1ccccc1-c1ccc(C(=O)N(CC(=O)NCc2ccc(CN)cc2)C[C@H](C)c2ccccc2)cc1`, the EC50 was over 50000 nM.

Regarding `Cc1ccccc1-c1ccc(S(=O)(=O)N(CC(=O)NCC2CCCC(CN)C2)C[C@@H](C)c2ccccc2)cc1` (some centres unmarked), the EC50 is 1070 nM.

Regarding `COc1ccccc1CCN(CC(=O)NCc1ccc(CN)cc1)S(=O)(=O)c1ccc(-c2ccccc2F)s1`, the EC50 is 7890 nM.

In the case of `COc1ccccc1CN(CC(=O)NCc1cccc(CN)c1)S(=O)(=O)c1ccc(-c2ccccc2OC)cc1`, the EC50 amounted to 17500 nM.
